Reference: ChEMBL document CHEMBL3244164, “Synthesis and analgesic activity of 1,3-dihydro-3-(substituted phenyl)imidazo[4,5-b]pyridin-2-ones and 3-(substituted phenyl)-1,2,3-triazolo[4,5-b]pyridines” (J Med Chem, 1978)

Tested on: Rattus norvegicus
Assay: Analgesic activity in Sprague-Dawley rat brewer's yeast treated foot assessed as response threshold at 32 mg/kg, po

| SMILES | Activity [mm] |
| --- | --- |
| CCN(CC)CCn1c(=O)n(-c2ccc3c(c2)OCO3)c2ncccc21 | < 25 |
| O=C(Cn1c(=O)n(-c2ccc3c(c2)OCO3)c2ncccc21)N1CCOCC1 | < 25 |
